Measured values as given in article PMC9960778, “Polymer-Antimicrobial Peptide Constructs with Tailored Drug-Release Behavior” (Pharmaceutics, 2023).

Assay: Spontaneous hydrolysis and release of PEP in PBS buffers
Type: physicochemical
Details: HPLC
Method: The molecular weights and dispersity (Ð) of the polymer precursors were determined by size-exclusion chromatography (SEC) on an HPLC system (Shimadzu) equipped with a refractive index, UV, and multiangle light scattering DAWN 8 EOS (Wyatt Technology Corp., Santa Barbara, CA) detectors using a TSK 3000 SWXL column (Tosoh Bioscience, Tokyo, Japan) and 80% MeOH:20% 0.3 M acetate buffer pH 6.5 at a flow rate of 0.5 mL‧min^−1. The calculation of molecular weights from the light scattering detector was based on the known injected mass assuming 100% mass recovery and RI detector with the refractive index increment dn/dc equal to 0.167 mL‧g^−1. The PEP release was also measured by SEC using Superose 12 10/300 GL column (Cytiva, Marlborough, MA, USA) and 0.2M Phosphate-buffered saline (PBS, pH 7.4) as a mobile phase at a flow rate 0.7 mL‧min^−1.
The enzymatic activity of cathepsin B was probed immediately before the release measurements as described previously. The enzymolysis was monitored by HPLC and the rate of PEP release was calculated from the area of the corresponding polymer peaks from the fluorescent detector (excitation 280 nm, emission 350 nm of Trp in PEP). The spontaneous hydrolysis and release of PEP were measured by HPLC in two different PBS buffers to mimic the bloodstream, pH 7.4 and pH 5.5, at 37 °C.

p(HPMA-co-Ma-β-Ala-DBCO-azide-PEP) [P-PEP, non-cleavable polymer-PEP construct, control system]
Stability / PEP release in PBS pH 7.4 (PBS buffer pH 7.4, 37 °C, model conditions mimicking the bloodstream): no PEP liberation
Stability / PEP release at pH 5.0 (PBS pH 5.0 (method says pH 5.5), 37 °C): no PEP liberation
